How the values were obtained:
[1] = system: E. coli ML35p outer membrane; assay: Outer membrane disruption (β-lactamase leakage, nitrocefin); format: cell-based, Escherichia coli; details: DPBS; HCMAB = 100%
Experimental: (§1) Interactions with Bacterial Membranes. Interaction of the peptides with bacterial membranes in different phosphate buffers were evaluated using E. coli ML35p, constructed in our laboratory. At first, competent cells of E. coli ML35 were produced by conventional competent cell preparation method, then transformed with pBR322 plasmid. Transformed colonies were selected after growing on Luria-agar containing 50 μg/mL ampicillin. A single transformed colony was grown in presence of ampicillin first in Luria broth and then in MHBII and stored as 20% glycerol stock at −80° C. […]
Membrane Disruptions. The outer and the inner membrane disruptions by the peptides were evaluated by incubating bacterial suspension with peptides and then measuring the activity of enzymes leaked out of the cells. […]
The outer membrane disruption was tested by using the activity of beta-lactamase present in the periplasmic space of E. coli ML35p. Peptides when disrupt the outer membrane enough to cause beta-lactamase to come out, the degree of disruption can be measured by the virtue of the kinetics of the enzyme and using a chromogenic cephalosporin substrate called nitrocefin. β-lactamase mediated hydrolyzed product of nitrocefin has an absorbance αmax=486 nm. […]

[2] = system: E. coli ML35p outer membrane; assay: NPN assay, outer membrane perturbation; format: cell-based, Escherichia coli; details: 25 μM peptide, 25 μM PMB = 100%
Experimental: as §1
NPN Assay. The outer membrane perturbation of bacteria was evaluated by incubating E. coli ML35p with peptides in presence of NPN. […] Then, 90 μL of the bacterial suspension containing 20 μM NPN was added with 10 μL of 250 μM peptide (10×) solution in water and scanned for fluorescence intensity (excitation=350 nm, emission=420 nm). The % Perturbation was calculated by considering PMB to be causing 100% Perturbation and water (without peptide) as 0% Perturbation. […]
When peptides partition from the bulk aqueous environment to the cellular membranes, they may cause small defects in the membrane organization, a signature of adsorption of the peptides into the membranes. Such small defects are called membrane perturbations and can be evaluated by utilizing molecular probes. […]

CC[C@H](C)[C@H](NC(=O)[C@@H](NC(=O)[C@H](CCCCN)NC(=O)[C@@H]1CCCN1C(=O)[C@H](CCCCN)NC(=O)[C@H](CCCCN)NC(=O)[C@H](Cc1ccccc1)NC(=O)[C@H](Cc1ccccc1)NC(=O)[C@H](CCCCN)NC(=O)[C@H](CCCCN)NC(=O)[C@H](C)NC(=O)[C@H](CCCNC(=N)N)NC(=O)[C@H](CCCCN)NC(=O)[C@H](CCCCN)NC(=O)[C@@H](NC(=O)[C@H](CO)NC(=O)[C@H](CC(N)=O)NC(=O)[C@H](CCCCN)NC(=O)[C@H](CC(C)C)NC(=O)[C@H](CCCCN)NC(=O)[C@H](CCCCN)NC(=O)[C@H](Cc1ccccc1)NC(=O)[C@H](Cc1ccccc1)NC(=O)[C@H](CCCCN)NC(=O)[C@H](CCCCN)NC(=O)[C@H](Cc1ccccc1)NC(=O)[C@H](CCCNC(=N)N)NC(=O)[C@@H](N)CCCCN)C(C)C)C(C)C)C(=O)NCC(=O)N[C@H](C(=O)N[C@H](C(=O)N[C@@H](Cc1ccccc1)C(=O)N1CCC[C@H]1C(=O)N[C@@H](Cc1ccccc1)C(=O)O)[C@@H](C)O)C(C)C [NA-CATH, reference compound]
outer membrane disruption (β-lactamase activity) relative to HCMAB [1]: slightly lower degrees of membrane-disruption
membrane perturbation with respect to PMB ([2]; 10 mM phosphate buffer): higher degree of membrane perturbations than PMB
membrane perturbation with respect to PMB ([2]; PBS): perturbed outer membrane greater than PMB

From patent publication US11447533B2, “Antimicrobial and anticancer peptides and conjugates and compositions, methods, articles and kits relating thereto” (George Mason Research Foundation, Inc., priority 2018, dated 2022)
